# Antibody variant affinities, Ab-14 heavy chain, assay B

The target is the same throughout: PDVDLGDISGINAS, from the HR2 region of SARS-CoV-2 spike.

The variants keep the light chain, the linker and the frameworks of Ab-14 (scFv order VH, three GGGGS repeats, VL).
VH: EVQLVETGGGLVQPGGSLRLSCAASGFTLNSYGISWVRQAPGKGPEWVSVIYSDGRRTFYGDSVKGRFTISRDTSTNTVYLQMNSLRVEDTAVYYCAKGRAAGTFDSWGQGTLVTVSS
VL: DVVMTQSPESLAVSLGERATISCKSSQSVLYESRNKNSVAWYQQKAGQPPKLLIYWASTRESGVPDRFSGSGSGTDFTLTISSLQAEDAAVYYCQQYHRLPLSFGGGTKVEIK

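The parent was found by panning a naive human phage display library on the peptide. This is the validation round: designs drawn from the data on random variants, tested in the same kind of assay. Group labels follow the data file (Ctrl: baseline library sampled from a position-specific scoring matrix, with some repeated check sequences; Rand: our label for a block that the file lists under HC and that is probably the random mutants of the ten best first-round binders; En: ensemble of fine-tuned language models; GP: Gaussian process model; GPLM: also part of the Gaussian process libraries; HC: hill climbing; Gen: genetic algorithm; Gibbs: Gibbs sampling; a sequence that several methods proposed may carry one label only). Affinity was read by AlphaSeq, a pooled yeast mating assay with surface-displayed partners. Pairs that bind mate more often; barcode pairs of the diploids are counted by sequencing. Scores were corrected for input abundance and mapped to Kd with protein pairs of known affinity run in the same pool. Each pool was mated in six replicate cultures.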

The whole VH of each variant is written out. Scale: log10 of Kd in nM, estimated from mating counts; low values are strong binders. Replicates are averaged; those with no signal do not enter the mean. An entry "not detected" has no value in the source: the pair was not observed among the diploids in any replicate. This suggests poor binding but is not conclusive. Of ten entries with the parent sequence, four were seen in most replicates (averages 0.34 to 2.37), three in one and three in none, so single entries are noisy. Background: pairings of all heavy chain designs with three empty control strains gave a value in 1% of cases (median 2.08, 5th percentile 0.84). Values in that range, when seen in few replicates, are hard to tell from nonspecific mating. The control count says in how many pairings with the empty strains this scFv gave a signal. A sequence measured in both rounds can read differently, since the two assays cover different ranges. In the paper, a design with two or fewer of six values counts as a poor binder.

VH | group | log10 Kd (nM), mean | detected | control signals
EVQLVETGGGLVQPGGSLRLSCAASGFNLDEYGISWVRQAPGKGPEWVSVIYADGMRTFVTEAVKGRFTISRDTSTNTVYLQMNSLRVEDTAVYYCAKGSNADFVLAWGQGTLVTVSS | En_Gibbs | not detected | 0/6 | 0/18
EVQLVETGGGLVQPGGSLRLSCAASGFTLNSYGISWVRQAPGKGPEWVSVIYSDGRRTFYSDSVKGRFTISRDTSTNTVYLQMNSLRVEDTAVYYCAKGNAAGKFDTWGQGTLVTVSS | GP_HC | not detected | 0/6 | 0/18
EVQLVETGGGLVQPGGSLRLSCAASGFTLMDYGCSWVRQAPGKGPEWVSVIYSYGRRTFYGDSVKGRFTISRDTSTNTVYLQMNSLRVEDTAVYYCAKSRAALTFHSWGQGTLVTVSS | Rand | not detected | 0/6 | 0/18
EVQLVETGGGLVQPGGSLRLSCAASGFDLNEYGISWVRQAPGKGPEWVSVIYADGRRTFYADNVKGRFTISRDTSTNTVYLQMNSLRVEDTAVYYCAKGNVAGTFDIWGQGTLVTVSS | En_HC | -0.16 | 6/6 | 0/18
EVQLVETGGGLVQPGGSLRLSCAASGFDLNEYGISWVRQAPGKGPEWVSVIYADGMRTFYADDVKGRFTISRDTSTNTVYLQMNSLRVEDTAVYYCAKGNVAGTFDMWGQGTLVTVSS | En_Gen | -0.56 | 6/6 | 0/18
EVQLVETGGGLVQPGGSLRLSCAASGFNLDEYGISWVRQAPGKGPEWVSVIYADGTRTSYQDRVKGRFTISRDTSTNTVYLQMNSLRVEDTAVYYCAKGVKSGHDKVWGQGTLVTVSS | En_Gibbs | 0.68 | 6/6 | 0/18
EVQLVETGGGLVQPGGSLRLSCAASGFELNSYGISWVRQAPGKGPEWVSVIYSDGRRTAYRDSVKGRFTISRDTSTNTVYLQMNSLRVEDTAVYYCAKGRTAGTFDSWGQGTLVTVSS | GP_Gibbs | 0.54 | 6/6 | 0/18

Continued, with the values leading:

log10 Kd (nM), mean | detected | control signals | VH | group
not detected | 0/6 | 0/18 | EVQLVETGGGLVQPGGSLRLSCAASGFTLNSYGISWVRQAPGKGPEWVSVIYSDGRRTFYGDSVKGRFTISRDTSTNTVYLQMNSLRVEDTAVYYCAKGRCAGEFDDWGQGTLVTVSS | Ctrl
0.16 | 6/6 | 0/18 | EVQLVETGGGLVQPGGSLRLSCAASGFSLNSYGISWVRQAPGKGPEWVSVIYSDGRRTFYGDPVKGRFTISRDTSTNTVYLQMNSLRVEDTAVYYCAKGMTAGTFDSWGQGTLVTVSS | GP_Gibbs
-0.56 | 6/6 | 0/18 | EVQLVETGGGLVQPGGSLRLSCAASGFDLNEYGISWVRQAPGKGPEWVSVIYADGMRTFYTDSVKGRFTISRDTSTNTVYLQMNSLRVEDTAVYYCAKGNVAGTFDQWGQGTLVTVSS | En_Gen
1.03 | 6/6 | 0/18 | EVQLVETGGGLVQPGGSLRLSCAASGFWLNSYGISWVRQAPGKGPEWVSVIYSDGRRTFYADSVKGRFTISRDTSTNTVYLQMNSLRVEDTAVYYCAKGKTAGTFDTWGQGTLVTVSS | GP_Gibbs
-0.26 | 6/6 | 0/18 | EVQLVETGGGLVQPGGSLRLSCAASGFDLNEYGISWVRQAPGKGPEWVSVIYADGMRTFYADSVKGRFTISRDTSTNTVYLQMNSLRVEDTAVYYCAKGTNAGTFDVWGQGTLVTVSS | En_Gen
0.26 | 6/6 | 0/18 | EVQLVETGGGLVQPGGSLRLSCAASGFTLNEYGISWVRQAPGKGPEWVSVIYSDGRRTFYGDSVKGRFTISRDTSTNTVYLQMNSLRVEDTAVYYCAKGRAAGTFDTWGQGTLVTVSS | GPLM_Gen
-0.35 | 6/6 | 1/18 | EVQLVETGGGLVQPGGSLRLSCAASGFDLEEYGISWVRQAPGKGPEWVSVIYADGRRTAYIDSVKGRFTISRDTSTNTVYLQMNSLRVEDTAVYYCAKGEAAGTFDSWGQGTLVTVSS | En_HC

Reference: Li et al. 2023, doi:10.1038/s41467-023-39022-2. File: FLAb, binding data.